Measured values: US20080269114A1, “Y4 Selective Receptor Agonists For Thereapeutic Interventions” (priority 2004, published 2008)

Sequences of proteins named here, by UniProt entry; tags and fusion partners are left off. A change or cut given only in a name is not applied to a line headed by its entry.
UniProt P50391: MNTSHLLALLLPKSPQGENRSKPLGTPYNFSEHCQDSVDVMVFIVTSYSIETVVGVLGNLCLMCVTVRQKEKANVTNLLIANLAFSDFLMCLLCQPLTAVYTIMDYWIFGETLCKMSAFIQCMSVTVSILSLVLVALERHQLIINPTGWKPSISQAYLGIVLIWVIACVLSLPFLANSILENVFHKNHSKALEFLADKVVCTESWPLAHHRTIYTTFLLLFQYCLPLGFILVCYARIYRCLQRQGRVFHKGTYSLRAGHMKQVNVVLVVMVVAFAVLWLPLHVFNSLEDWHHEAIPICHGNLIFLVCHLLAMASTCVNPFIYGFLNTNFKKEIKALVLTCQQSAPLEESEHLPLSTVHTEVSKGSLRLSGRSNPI

Key:
[1] = In vitro assays to determine protein stability; assay type: in vitro ADME; conditions: compared to PP (PP1-36); statement in words
human Y4 receptor [2] = target: T1, human Y4 receptor (Homo sapiens, UniProt P50391); assay: Human Y4 receptor affinity assay (125I-PP competition binding, transfected COS-7 cells); conditions: refers to Table 1
T1 construct: expressed in transfected cells; host or cells: COS-7

human Y4 receptor [3] = target: T1, human Y4 receptor; assay: Human Y4 receptor potency assay (inositol phosphate turnover, COS-7 cells); assay type: cell-based; conditions: refers to Table 2; inositol phosphate turnover assay in transfected COS-7 cells; read-out: agonist potency on the Y4 receptor (EC50)

protein stability [1]	IC50 (human Y4 receptor [2]) [nM]	EC50 (human Y4 receptor [3]) [nM]	SMILES
more stable	–	–	CC[C@H](C)[C@H](NC(=O)[C@H](Cc1ccc(O)cc1)NC(=O)[C@H](CCCNC(=N)N)NC(=O)[C@H](CCCNC(=N)N)NC(=O)[C@H](CC(C)C)NC(=O)[C@H](CC(=O)O)NC(=O)[C@H](C)NC(=O)[C@H](C)NC(=O)[C@H](Cc1ccc(O)cc1)NC(=O)[C@H](CCC(N)=O)NC(=O)[C@H](C)NC(=O)[C@H](CCSC)NC(=O)[C@H](CCC(N)=O)NC(=O)[C@H](CCC(=O)O)NC(=O)[C@@H]1CCCN1C(=O)[C@@H](NC(=O)[C@H](C)NC(=O)[C@H](CC(N)=O)NC(=O)[C@H](CC(=O)O)NC(=O)CNC(=O)[C@@H]1CCCN1C(=O)[C@H](Cc1ccc(O)cc1)NC(=O)[C@@H](NC(=O)[C@@H]1CCCN1C(=O)[C@H](CCC(=O)O)NC(=O)[C@H](CC(C)C)NC(=O)[C@@H]1CCCN1)C(C)C)[C@@H](C)O)C(=O)N[C@@H](CC(N)=O)C(=O)N[C@@H](CCSC)C(=O)N[C@@H](CC(C)C)C(=O)N[C@H](C(=O)N[C@@H](CCCNC(=N)N)C(=O)N1CCC[C@H]1C(=O)N[C@@H](CCCNC(=N)N)C(=O)N[C@@H](Cc1ccc(O)cc1)C(N)=O)[C@@H](C)O [PP2-36]
–	286	–	CC[C@H](C)[C@H](NC(=O)[C@H]1CSSC[C@H](NC(=O)[C@H](C)N)C(=O)N[C@@H](CC(C)C)C(=O)N[C@@H](CCC(=O)O)C(=O)NCCCCCCCC(=O)N[C@@H](CCCNC(=N)N)C(=O)N[C@@H](CCCNC(=N)N)C(=O)N1)C(=O)N[C@@H](CC(N)=O)C(=O)N[C@@H](CCSC)C(=O)N[C@@H](CC(C)C)C(=O)N[C@H](C(=O)N[C@@H](CCCNC(=N)N)C(=O)N1CCC[C@H]1C(=O)N[C@@H](CCCNC(=N)N)C(=O)N[C@@H](Cc1ccc(O)cc1)C(N)=O)[C@@H](C)O [[Cys2,Aoc5-24,D-Cys27]PP]
more stable	8.2	4.6	CC[C@H](C)[C@H](NC(=O)[C@H]1CSSC[C@H](NC(=O)[C@H](C)N)C(=O)N[C@@H](CC(C)C)C(=O)N[C@@H](CCC(=O)O)C(=O)N2CCC[C@H]2C(=O)N[C@@H](C(C)C)C(=O)N[C@@H](Cc2ccc(O)cc2)C(=O)N2CCC[C@H]2C(=O)NCC(=O)N[C@@H](CC(=O)O)C(=O)N[C@@H](CC(N)=O)C(=O)N[C@@H](C)C(=O)N[C@@H]([C@@H](C)O)C(=O)N2CCC[C@H]2C(=O)N[C@@H](CCC(=O)O)C(=O)N[C@@H](CCC(N)=O)C(=O)N[C@@H](CCSC)C(=O)N[C@@H](C)C(=O)N[C@@H](CCC(N)=O)C(=O)N[C@@H](Cc2ccc(O)cc2)C(=O)N[C@@H](C)C(=O)N[C@@H](C)C(=O)N[C@@H](CC(=O)O)C(=O)N[C@@H](CC(C)C)C(=O)N[C@@H](CCCNC(=N)N)C(=O)N[C@@H](CCCNC(=N)N)C(=O)N1)C(=O)N[C@@H](CC(N)=O)C(=O)N[C@@H](CCSC)C(=O)N[C@@H](CC(C)C)C(=O)N[C@H](C(=O)N[C@@H](CCCNC(=N)N)C(=O)N1CCC[C@H]1C(=O)N[C@@H](CCCNC(=N)N)C(=O)N[C@@H](Cc1ccc(O)cc1)C(N)=O)[C@@H](C)O [[Cys2,D-Cys27]PP]
